Measured values from patent publication US9951014B2, “Mammalian and bacterial nitric oxide synthase inhibitors” (Northwestern University, priority 2014, dated 2018).

Assays:
Assay in all cases: Oxyhemoglobin NO capture assay with purified NOS
Format in all cases: biochemical
[1] = target: bovine eNOS (Bos taurus (Bovine), UniProt P29473)
[2] = target: human nNOS (Homo sapiens (Human), UniProt P29475); details: Table 9; read-out: Ki H nNOS
[3] = target: murine iNOS (Mus musculus (Mouse), UniProt P29477)
[4] = target: rat nNOS (Rattus norvegicus (Rat), UniProt P29476); details: Table 9

| SMILES | e/n selectivity [1] | Ki [2] | i/n selectivity [3] | Ki [4] |
| --- | --- | --- | --- | --- |
| CNCCN(C)c1cc(C#N)cc(CCc2cc(C)cc(N)n2)c1 [Compound 19c, 3-(2-(6-Amino-4-methylpyridin-2-yl)ethyl)-5-(methyl(2-(methylamino)ethyl)amino)benzonitrile] | 1040 | 55 nM | 153 |  |
| CNCCN(C)c1cc(F)cc(CCc2cc(C)cc(N)n2)c1 [Compound 19b, N^1-(3-(2-(6-Amino-4-methylpyridin-2-yl)ethyl)-5-fluorophenyl)-N^1,N^2-dimethylethane-1,2-diamine] | 903 |  | 166 |  |
| CNCCN(C)c1cncc(CCc2cc(C)cc(N)n2)c1 [Compound 14b, N^1-(5-(2-(6-Amino-4-methylpyridin-2-yl)ethyl)pyridin-3-yl)-N^1,N^2-dimethylethane-1,2-diamine] |  |  |  | 17 ± 1.6 nM |
